The test has as its system Toxoplasma gondii. The test can be described thus: microbe, parasite or virus in culture.
`NC(=O)c1c(-c2ccc3ccccc3c2)nn(CC(F)(F)F)c1N`: the EC50 turned out to be 260 nM. For `CCOc1ccc2cc(-c3nn(C(C)(C)C)c(N)c3C(N)=O)ccc2c1` the value was 390 nM; for `COc1ccc2cc(-c3nn(C(C)(C)C)c(N)c3C(N)=O)ccc2c1`, 72 nM. As to `CC(C)(C)Cn1nc(-c2ccc3ccccc3c2)c(C(N)=O)c1N`, a half-maximal effect (EC50) was put at 320 nM. `CC(C)(C)n1nc(-c2cnc3ccccc3c2)c(C(N)=O)c1N` returned a concentration for a half-maximal effect (EC50) of 1100 nM.

The record behind these values is ChEMBL document CHEMBL3108667, “Potent and selective inhibitors of CDPK1 from T. gondii and C. parvum based on a 5-aminopyrazole-4-carboxamide scaffold” (ACS Med Chem Lett, 2014).
